Assay results as given in patent publication US20050214310A1 (priority 2004, published 2005).

Tested on: H3677 melanoma cell line
Test: In vitro cytotoxicity assay (Alamar Blue) on H3677 melanoma cell line
Assay type: cell-based
Conditions: drug alone, H3677 melanoma cells, 4 hr exposure, washing, 96 hr incubation at 37° C.

Substance	IC50
Mel-(1S,2R)-norephedrine	20 nM
Mel-L-Phe	7500 nM
Mel-L-Phe-L-Phe-NH2	25 nM
Mel-L-Phe-ol	1700 nM
Mel-L-Ser(OBz)-NH2	100 nM
Mel-L-Val-NH2	370 nM
Mel-L-phenylglycine amide	380 nM
